Data on 1 compound can be found in US8618111B2, “5-alkynyl-pyrimidines” (Boehringer Ingelheim International GmbH, priority 2010, dated 2013).

Test [1] has as its target mTOR (Homo sapiens (Human), UniProt P42345). Put plainly: mTOR kinase activity assay (phosphorylation status of mTOR substrate 4E-BP1; TR-FRET). Particulars: read-out: IC50 mTOR, GFP-4E-BP1 substrate, 8 μM ATP. Background: Time-resolved FRET reads energy transfer from a long-lived donor to a nearby acceptor.
For test [2], the system named is PC3 (human prostate carcinoma cell line) cells. Nature of the test: PC3 proliferation test. As to conditions: read-out: EC50 PC3, 3 days incubation, DNA dye fluorescence.

A word on the IC50: it is the concentration at which inhibition is half-maximal. A word on the EC50: it is the concentration giving half of the maximal effect. As for `CCC1(O)CCN(c2ncnc(C)c2C#Cc2ccc(N)nc2)CC1`, the IC50 in test [1] amounted to 4 nM. Further, the EC50 in test [2] stood at 21 nM.
